Results as given in publication PMC2941777 (Molecular pharmaceutics, 2009).

Tested on: UDP-glucuronosyltransferases (UGT), rat ileum microsomes
Test: Glucuronidation of naringenin in rat ileum microsomes
Conditions: 10 μM naringenin, vs control

With CN(C)C(=O)CCSC(SCCC(=O)O)c1cccc(/C=C/c2ccc3ccc(Cl)cc3n2)c1 (stereo not shown) [MK-571] the “effect on glucuronidation rates of naringenin, inhibitors used simultaneously” value was “decreased significantly”.
